# Laboratory results published in ChEMBL document CHEMBL1157932, “Prenylated pterocarpans as bacterial neuraminidase inhibitors” (Bioorg Med Chem, 2010).
# By UniProt entry, the sequences of proteins in these tests, tags left out.
# UniProt P0C6E9, whole entry: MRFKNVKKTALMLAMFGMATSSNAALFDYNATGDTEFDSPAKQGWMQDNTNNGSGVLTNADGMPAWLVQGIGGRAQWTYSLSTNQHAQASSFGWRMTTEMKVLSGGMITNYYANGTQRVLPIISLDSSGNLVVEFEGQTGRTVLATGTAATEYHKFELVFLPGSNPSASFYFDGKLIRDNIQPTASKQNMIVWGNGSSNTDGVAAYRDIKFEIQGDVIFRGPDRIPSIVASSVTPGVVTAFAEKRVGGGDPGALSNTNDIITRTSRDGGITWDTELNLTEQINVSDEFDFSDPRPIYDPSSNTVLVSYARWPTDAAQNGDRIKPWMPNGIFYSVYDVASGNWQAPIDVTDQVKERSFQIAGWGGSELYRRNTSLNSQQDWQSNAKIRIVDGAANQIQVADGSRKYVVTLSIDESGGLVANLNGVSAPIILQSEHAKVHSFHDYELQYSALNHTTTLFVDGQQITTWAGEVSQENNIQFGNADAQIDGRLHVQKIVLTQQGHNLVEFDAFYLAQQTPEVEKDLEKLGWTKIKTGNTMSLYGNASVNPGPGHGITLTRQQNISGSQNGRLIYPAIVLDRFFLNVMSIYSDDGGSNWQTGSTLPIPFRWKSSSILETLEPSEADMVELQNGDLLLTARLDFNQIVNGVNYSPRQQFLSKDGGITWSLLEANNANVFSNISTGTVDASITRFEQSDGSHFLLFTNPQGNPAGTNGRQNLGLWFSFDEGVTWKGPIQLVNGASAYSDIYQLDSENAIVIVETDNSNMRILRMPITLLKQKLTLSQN
# Biological target: Sialidase (Vibrio cholerae serotype O1 (strain ATCC 39315 / El Tor Inaba N16961)) (UniProt P0C6E9)
# Test: Inhibition of Vibrio cholerae neuraminidase assessed as inhibition of 4-MU-NANA hydrolysis after 30 mins by spectrofluorimetry
# Outline: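 V. cholerae enzyme (8.3 U) with compound in 50 mM MES, 6 mM CaCl2, pH 5.6, pre-incubated 30 min at 37 °C with shaking. 4-MU-NANA added at 25 µM final, 30 min at 37 °C, then quenched with 0.25 M glycine pH 10.0. Read at ex 360/em 440 nm, blank-corrected, expressed as % of no-inhibitor control, at least triplicate.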
row,Structure (SMILES),Activity
1,CC(C)=CCc1cc2c(cc1O)OC[C@H]1c3ccc(O)cc3O[C@@H]21 [CALOPOCARPIN],Dose-dependent effect
2,CC(C)=CCc1c(O)ccc2c1O[C@H]1c3cc4c(cc3OC[C@@H]21)OC(C)(C)C(O)C4 (stereo partly drawn) [ERYTHRIBYSSIN L],Dose-dependent effect
3,CC(C)=CCc1cc2c(cc1O)O[C@H]1c3ccc(O)cc3OC[C@@H]21 [SOPHORAPTEROCARPAN A],Dose-dependent effect
